This is an account of results in patent publication US20080114079A1, “TRPM2-specfic inhibitors” (priority 2006, published 2008).

Chains of the proteins cited; added tags and fusions are not shown.
UniProt O94759, whole entry: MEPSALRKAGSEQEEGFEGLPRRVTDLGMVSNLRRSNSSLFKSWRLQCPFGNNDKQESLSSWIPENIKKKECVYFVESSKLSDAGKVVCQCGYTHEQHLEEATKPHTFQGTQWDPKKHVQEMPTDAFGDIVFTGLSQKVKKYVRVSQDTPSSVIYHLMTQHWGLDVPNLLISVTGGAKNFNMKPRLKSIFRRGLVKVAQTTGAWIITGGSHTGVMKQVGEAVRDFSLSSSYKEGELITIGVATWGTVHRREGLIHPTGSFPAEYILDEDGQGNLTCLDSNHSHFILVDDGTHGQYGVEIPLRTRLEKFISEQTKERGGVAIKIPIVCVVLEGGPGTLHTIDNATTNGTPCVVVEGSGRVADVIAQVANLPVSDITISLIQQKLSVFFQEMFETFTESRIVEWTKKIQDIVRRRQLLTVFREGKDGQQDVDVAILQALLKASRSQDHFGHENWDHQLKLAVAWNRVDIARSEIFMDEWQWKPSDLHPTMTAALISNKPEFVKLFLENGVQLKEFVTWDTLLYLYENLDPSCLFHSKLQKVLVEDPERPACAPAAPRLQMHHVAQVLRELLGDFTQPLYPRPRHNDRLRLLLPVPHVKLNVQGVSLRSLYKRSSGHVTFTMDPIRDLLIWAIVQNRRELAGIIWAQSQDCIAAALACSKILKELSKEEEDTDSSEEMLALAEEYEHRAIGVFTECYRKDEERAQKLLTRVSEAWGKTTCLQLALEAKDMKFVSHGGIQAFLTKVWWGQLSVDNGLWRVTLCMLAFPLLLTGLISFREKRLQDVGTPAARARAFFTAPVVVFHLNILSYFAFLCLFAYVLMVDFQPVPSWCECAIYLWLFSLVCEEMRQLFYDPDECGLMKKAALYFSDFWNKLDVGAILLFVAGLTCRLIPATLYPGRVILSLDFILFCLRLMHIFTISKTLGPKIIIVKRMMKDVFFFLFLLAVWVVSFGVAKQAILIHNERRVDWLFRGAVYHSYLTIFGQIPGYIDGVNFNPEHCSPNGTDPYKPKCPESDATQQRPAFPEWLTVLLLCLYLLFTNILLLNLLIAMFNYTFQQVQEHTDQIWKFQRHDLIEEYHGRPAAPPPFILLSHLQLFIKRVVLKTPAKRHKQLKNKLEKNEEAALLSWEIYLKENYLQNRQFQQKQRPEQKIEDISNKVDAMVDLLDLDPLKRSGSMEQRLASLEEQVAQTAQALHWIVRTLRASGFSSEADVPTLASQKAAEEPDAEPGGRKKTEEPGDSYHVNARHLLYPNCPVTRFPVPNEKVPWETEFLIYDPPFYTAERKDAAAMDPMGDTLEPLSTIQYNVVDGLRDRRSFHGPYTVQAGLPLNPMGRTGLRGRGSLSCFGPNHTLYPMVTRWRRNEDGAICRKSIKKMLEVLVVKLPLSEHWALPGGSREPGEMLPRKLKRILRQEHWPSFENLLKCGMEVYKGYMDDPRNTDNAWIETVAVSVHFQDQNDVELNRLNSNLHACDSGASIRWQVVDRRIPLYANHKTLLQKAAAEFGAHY

One data set has as its target T1, TRPM2 channels (Homo sapiens, UniProt O94759).
T1 construct: endogenous in cells; host or cells: Jurkat T lymphocytes
In words: Whole-cell patch-clamp of ADPR-gated cation entry in TRPM2-expressing Jurkat T cells. The format is cell-based. The settings on record: pipette with 0.3 mM ADPR plus 0.9 mM 8Br-ADPR (three-fold excess). How it is done: Electrophysiology. Membrane currents were recorded in the whole-cell configuration of the patch-clamp technique (Hamill O. P. et al., 1981 Pflugers Arch 391:85-100). An EPC9 patch-clamp amplifier was used in conjunction with the PULSE stimulation and data acquisition software (HEKA Elektronik). The patch electrodes were made from 1.5 mm diameter borosilicate glass capillaries and filled with intracellular solution. Data were low-pass filtered at 1 kHz and compensated for both fast and slow capacity transients. Series resistance was compensated by 50-90%. All experiments were performed at room temperature with Jurkat T lymphocytes attached to high molecular weight poly-L-lysin. The pipette solution contained 145 mM K-glutamate, 8 mM NaCl, 1 mM MgCl2 and 10 mM EGTA, adjusted to pH 7.2 with KOH and to a free Ca^2+ concentration of 100 nM with CaCl2. In some experiments, the pipette solution additionally contained ADPR (0.3 mM) or ADPR (0.3 mM) plus 8Br-ADPR (0.9 mM). The external solution contained 145 mM NaCl, 2 mM MgCl2, 1 mM CaCl2, 2.8 mM KCl, 10 mM HEPES and 10 mM glucose, adjusted to pH 7.2 with NaOH. The cells were held at −60 mV and I-V relations were obtained every 20 sec using 250 ms voltage ramps from −100 to +100 mV.
(In general: The patch-clamp technique gives a direct electrical read-out from membranes.)

Data set [1] concerns store-operated Ca^2+ channels (SOC). The experiment in a line: Ca2+ mobilization assay, thapsigargin-induced store-operated Ca2+ entry in neutrophils and DCs. The class given is cell-based, mouse. The following applies: 100 μM, 15 min preincubation, thapsigargin 1 μM. As to the method: (§1) Ca^2+ mobilization assays. Bone marrow neutrophils (1×10^7/ml) and DCs (1×10^6/ml) were loaded with a mixture of Fluo-3 AM and Fura-Red AM as previously described (Partida-Sanchez, S. et al., 2001 Nature Medicine 7:1209-1216; Partida-Sanchez S. et al., 2004 Immunity 20:279-291). The cells were preincubated in media, 8Br-cADPR, 8Br-ADPR or 8Br-NAD^+ (100 μM each) for 15 minutes and then stimulated. The accumulation of intracellular free Ca^2+ was assessed by flow cytometry by measuring the fluorescence emission of Fluo-3 in the FL-1 channel and Fura-Red in the FL-3 channel over time. Data were analyzed using FlowJo 4.0 software (Tree Star). Relative intracellular free Ca^2+ levels are expressed as the ratio between Fluo-3 and Fura-Red mean fluorescence intensity.
On the technique in general: Calcium assays in cells follow changes in intracellular calcium, usually with a dye or a luminescent sensor.

Data set [2] concerns mouse bone marrow neutrophils. In words: Ca2+ mobilization assay in chemoattractant-stimulated bone marrow neutrophils (flow cytometry, Fluo-3/Fura-red). The format is cell-based. The following applies: 100 μM, 15 min. How it is done:
as §1

Another data set has as its system mouse DCs. In words: Ca2+ mobilization assay in chemokine-stimulated DCs. The class given is cell-based. The following applies: 100 μM, 15 min, CXCL12 50 ng/ml. How it is done:
as §1

Data set [3] has as its system mouse bone marrow neutrophils. The experiment in a line: Oxidant (H2O2)-induced Ca2+ influx in bone marrow neutrophils. The format is cell-based. The settings on record: 100 μM, 15 min, H2O2 100 μM. As to the method:
as §1

Data set [4] relates to mouse bone marrow neutrophils. In words: Transwell chemotaxis assay, mouse bone marrow neutrophils. The class given is cell-based. As to the method: (§2) Chemotaxis assays. Chemotaxis assays were performed as previously described (Partida-Sanchez, S. et al., 2001 Nature Medicine 7:1209-1216; Partida-Sanchez S. et al., 2004 Immunity 20:279-291). Briefly, cells were pretreated for 15 minutes with media 8Br-cADPR, 8Br-ADPR or 8Br-NAD^+ (100 μM each). Treated cells (1×10^6 neutrophils or 1×10^5 DCs) were added to the upper chamber of the transwell (3-μm for neutrophils or 5-μm for DCs) (Costar). After incubating the chambers for 45 min (neutrophils) or 90 min (DCs) at 37° C., the transmigrated cells were collected from the lower chamber, fixed, and counted on a flow cytometer. The results are expressed as the mean ±SD of the chemotaxis index (CI) for triplicate wells. The CI represents the fold-change in the number of untreated or inhibitor-pretreated cells that migrated in response to the chemoattractant divided by the basal migration of untreated or antagonist pretreated cells migrating in response to control medium.

Data set [5] relates to bone marrow-derived immature or TNFα-matured DCs. In words: Transwell chemotaxis assay, bone marrow-derived DCs. The format is cell-based, mouse. The settings on record: 100 μM, 15 min pretreatment. How it is done:
as §2

The next data set has as its system human neutrophils. The experiment in a line: Transwell chemotaxis assay, human peripheral blood neutrophils. The class given is cell-based. The following applies: 100 μM, 15 min, A5 peptide 1 μM. How it is done:
as §2

Data set [6] can be described thus: HPLC analysis of catabolites after incubation with bone marrow neutrophils. The format is in vitro ADME, mouse. As to the method: HPLC analysis of catabolites produced by CD38-expressing cells. Neutrophils were incubated with 8Br-NAD^+ (500 μM), 8Br-cADPR (100 μM), or 8Br-ADPR (100 μM) for 0 (no cells in reaction) to 15 minutes at 37° C. The supernatants were collected after centrifugation, concentrated and flash frozen. Aliquots were analyzed by reversed-phase HPLC (Kontron Instruments) using a Multohyp BDS C18 column (250 mm×4.6 mm, particle size 5 μm, Chromatographie Service). Absorbance was measured at 270 nm using a UV detector (Kontron 432) and data were processed by the MT2 data acquisition system from Kontron Instruments. Peaks were identified by comparison to known standards and the area under each curve was quantified to determine relative amounts of each metabolite.

Entries after “also recorded” stand apart in the source; their conditions may differ.

As for “8-bromo adenosine diphosphoribose [8Br-ADPR]”, the “effect on ADPR-induced cation entry (membrane current at -60 mV)” value at TRPM2 channels is given as “abrogated”. For the same substance, the “effect on capacitative Ca2+ influx induced by thapsigargin” value in data set [1] is “had absolutely no effect”. Further, the “effect on intracellular Ca2+ release after IL-8” value in [2] (IL-8 100 nM, Ca2+ free buffer (EGTA 2 mM)) is listed as “had no effect”. Moreover, the “effect on IL-8 induced Ca2+ response” value in data set [2] (IL-8 100 nM, Ca2+-containing media) is “neither compound had any effect”. Also, the “effect on intracellular Ca2+ release after fMLP” value in [2] (fMLP 1 μM, Ca2+ free buffer (EGTA 2 mM)) is given as “had no effect”. Moreover, in [2] (fMLP 1 μM, Ca2+-containing media, WT), the “effect on extracellular Ca2+ influx in fMLP-stimulated WT neutrophils” value was “significant reduction; also recorded: blocked”. Besides, the “effect on Ca2+ influx in fMLP-stimulated Parp1-/- neutrophils” value in data set [2] (fMLP 1 μM, Parp1-/-) is listed as “blocked”. Besides, the “effect on Ca2+ response of CXCL12-stimulated immature DCs” value with mouse DCs was “also blocked”. In data set [3] (Cd38-/-), the “effect on H2O2-induced Ca2+ influx in Cd38-/- neutrophils” value is given as “did not block”. In addition, the “effect on H2O2-induced Ca2+ influx in WT neutrophils” value in data set [3] (WT) is recorded as “did not block”. Moreover, the “inhibition of cell migration to fMLP” value in data set [4] (2.5 μM 8Br-ADPR, 15 min, fMLP 1 μM) is recorded as “at least 50%”. Besides, the “effect on chemotactic response of WT neutrophils to fMLP” value in data set [4] (100 μM, 15 min, fMLP 1 μM, 45 min, WT) was “efficiently inhibited; also recorded: significantly inhibited”. Moreover, in [4] (100 μM, 15 min, fMLP 1 μM, Parp1-/-), the “effect on chemotactic response of Parp1-/- neutrophils to fMLP” value was “significantly inhibited”. For the same substance, in [4] (100 μM, IL-8 100 nM, 45 min), the “effect on chemotactic response of neutrophils to IL-8” value is on record as “neither 8Br-ADPR nor 8Br-cADPR blocked”. Also, in [4] (15 min, fMLP 1 μM, CD38KO), the “effect on chemotactic response of CD38KO (Cd38-/-) neutrophils to fMLP” value was “no further inhibition; also recorded: did not further inhibit the response”. In addition, in [5], the “chemotactic response of TNFα-matured DCs to CCL21” value is “made poor chemotactic responses” and the “chemotactic response of immature DCs to CXCL12” value is reported as “made poor chemotactic responses”. The “effect on migration of human neutrophils to FPRL1 ligand A5 peptide” value in the data set on human neutrophils is recorded as “effectively inhibited”. In addition, the “8Br-cADPR in the preparation before or after incubation with neutrophils” value in data set [6] (before and 15 minutes after incubation) is “no 8Br-cADPR was detected”. The “compound catabolized to 8Br-AMP after incubation with leukocytes” value in data set [6] (over 15 minutes, mouse bone marrow neutrophils) is given as below 1.5%.
